The numbers were not newly measured in patent publication US10323029B2 (priority 2014, dated 2019), which cites them from elsewhere.

For this data set the following is noted: in vivo.

As to `CCCCCCCCc1ccc(CCC(N)(CO)CO)cc1` [FTY720, fingolimod], the cardiac adverse effects result was “significant sinus bradycardia, heart block and a prolongation of QTc interval”.
